Experiments:
CDK2/cyclin A = CDK2/cyclin A (Homo sapiens, UniProt P24941); test: in vitro kinase assay, recombinant CDK2/cyclin A
FGR = FGR (Homo sapiens, UniProt P09769); test: in vitro kinase assay, recombinant FGR
FLT3 = FLT3 (Homo sapiens, UniProt P36888); test: in vitro kinase assay, recombinant FLT3
FYN = FYN (Homo sapiens, UniProt P06241); test: in vitro kinase assay, recombinant FYN
GSK3β = GSK3β (Homo sapiens, UniProt P49841); test: in vitro kinase assay, recombinant GSK3β
HCK = HCK (Homo sapiens, UniProt P08631); test: in vitro kinase assay, recombinant HCK
LYN = LYN (Homo sapiens, UniProt P07948); test: in vitro kinase assay, recombinant LYN
TYK2 = TYK2 (Homo sapiens, UniProt P29597); test: in vitro kinase assay, recombinant TYK2
[1] = test system: p-Stat3 in PaCa2 pancreatic cancer cells; test: Western blot p-Stat3, PaCa2 cells; conditions: PaCa2, 0.5 μM, 4 hours
[2] = test system: p-Jak2 in PaCa2 pancreatic cancer cells; test: Western blot p-Jak2, PaCa2 cells; conditions: PaCa2, 0.5 μM, 4 hours
[3] = test system: p-Stat3 in SKOV3 ovarian cancer cells; test: Western blot p-Stat3, SKOV3 cells; conditions: SKOV3, 0.5 μM, 4 hours
[4] = test system: p-Jak2 in SKOV3 ovarian cancer cells; test: Western blot p-Jak2, SKOV3 cells; conditions: SKOV3, 0.5 μM, 4 hours
[5] = test system: p-SFKs in SKOV3 ovarian cancer cells; test: Western blot p-SFKs, SKOV3 cells; conditions: SKOV3, 4 hours
[6] = test system: p-Stat5 in MV4-11 AML cells; test: Western blot p-Stat5, MV4-11 AML cells

Chains of the proteins cited; added tags and fusions are not shown. Residues count along the entry.
UniProt P09769, whole entry: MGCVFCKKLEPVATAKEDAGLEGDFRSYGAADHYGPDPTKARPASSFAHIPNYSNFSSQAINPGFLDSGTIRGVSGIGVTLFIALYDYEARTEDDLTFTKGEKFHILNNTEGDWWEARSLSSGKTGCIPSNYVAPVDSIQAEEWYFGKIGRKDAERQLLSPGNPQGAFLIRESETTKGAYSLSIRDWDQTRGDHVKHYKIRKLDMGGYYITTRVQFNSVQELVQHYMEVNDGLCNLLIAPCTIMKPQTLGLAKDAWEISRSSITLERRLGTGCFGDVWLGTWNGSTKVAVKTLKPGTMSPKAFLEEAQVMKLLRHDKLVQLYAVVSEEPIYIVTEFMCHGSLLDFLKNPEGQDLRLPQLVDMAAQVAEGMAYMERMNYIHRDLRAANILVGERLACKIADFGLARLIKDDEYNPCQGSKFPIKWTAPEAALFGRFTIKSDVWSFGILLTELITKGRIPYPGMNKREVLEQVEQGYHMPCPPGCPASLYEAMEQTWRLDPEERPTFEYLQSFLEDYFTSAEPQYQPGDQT
UniProt P36888, 27-993 limits assumed: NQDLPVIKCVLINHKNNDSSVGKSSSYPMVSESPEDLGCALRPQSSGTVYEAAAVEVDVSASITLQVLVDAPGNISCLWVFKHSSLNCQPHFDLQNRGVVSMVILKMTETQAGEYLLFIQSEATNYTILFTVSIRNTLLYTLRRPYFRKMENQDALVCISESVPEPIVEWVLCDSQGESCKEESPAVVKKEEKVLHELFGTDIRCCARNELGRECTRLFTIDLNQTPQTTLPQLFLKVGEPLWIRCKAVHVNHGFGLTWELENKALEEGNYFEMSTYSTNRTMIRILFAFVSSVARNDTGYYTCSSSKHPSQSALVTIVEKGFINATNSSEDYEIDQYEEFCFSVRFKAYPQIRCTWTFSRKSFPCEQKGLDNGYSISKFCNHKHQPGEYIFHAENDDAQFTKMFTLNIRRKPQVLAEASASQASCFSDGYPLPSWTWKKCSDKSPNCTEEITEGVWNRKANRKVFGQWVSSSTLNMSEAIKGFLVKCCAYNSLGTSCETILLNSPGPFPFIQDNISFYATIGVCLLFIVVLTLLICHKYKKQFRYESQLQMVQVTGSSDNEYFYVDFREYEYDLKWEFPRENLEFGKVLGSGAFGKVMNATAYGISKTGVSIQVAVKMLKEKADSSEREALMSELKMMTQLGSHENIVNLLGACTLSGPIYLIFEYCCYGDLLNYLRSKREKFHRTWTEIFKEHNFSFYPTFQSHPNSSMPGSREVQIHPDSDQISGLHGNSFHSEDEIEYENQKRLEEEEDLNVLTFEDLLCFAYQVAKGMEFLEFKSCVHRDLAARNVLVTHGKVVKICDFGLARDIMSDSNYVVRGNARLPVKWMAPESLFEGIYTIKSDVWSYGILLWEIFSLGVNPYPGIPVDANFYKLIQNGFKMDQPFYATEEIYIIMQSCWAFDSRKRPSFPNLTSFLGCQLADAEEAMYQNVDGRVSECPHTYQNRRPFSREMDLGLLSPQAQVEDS
UniProt P06241, whole entry: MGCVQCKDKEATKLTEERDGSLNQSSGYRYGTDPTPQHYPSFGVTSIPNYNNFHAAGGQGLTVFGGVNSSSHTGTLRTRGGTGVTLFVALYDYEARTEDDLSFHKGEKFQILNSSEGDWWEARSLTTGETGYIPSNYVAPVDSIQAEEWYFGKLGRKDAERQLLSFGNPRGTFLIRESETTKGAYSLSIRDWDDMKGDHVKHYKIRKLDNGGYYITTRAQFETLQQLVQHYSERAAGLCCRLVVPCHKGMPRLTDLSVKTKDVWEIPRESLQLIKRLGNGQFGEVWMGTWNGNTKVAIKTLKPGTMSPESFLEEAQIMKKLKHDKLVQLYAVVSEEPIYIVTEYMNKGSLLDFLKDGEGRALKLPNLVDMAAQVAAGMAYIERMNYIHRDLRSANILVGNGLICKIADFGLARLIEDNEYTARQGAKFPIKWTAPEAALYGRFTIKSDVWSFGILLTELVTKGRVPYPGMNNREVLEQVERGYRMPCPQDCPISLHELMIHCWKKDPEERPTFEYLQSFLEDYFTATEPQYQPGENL
UniProt P49841, whole entry: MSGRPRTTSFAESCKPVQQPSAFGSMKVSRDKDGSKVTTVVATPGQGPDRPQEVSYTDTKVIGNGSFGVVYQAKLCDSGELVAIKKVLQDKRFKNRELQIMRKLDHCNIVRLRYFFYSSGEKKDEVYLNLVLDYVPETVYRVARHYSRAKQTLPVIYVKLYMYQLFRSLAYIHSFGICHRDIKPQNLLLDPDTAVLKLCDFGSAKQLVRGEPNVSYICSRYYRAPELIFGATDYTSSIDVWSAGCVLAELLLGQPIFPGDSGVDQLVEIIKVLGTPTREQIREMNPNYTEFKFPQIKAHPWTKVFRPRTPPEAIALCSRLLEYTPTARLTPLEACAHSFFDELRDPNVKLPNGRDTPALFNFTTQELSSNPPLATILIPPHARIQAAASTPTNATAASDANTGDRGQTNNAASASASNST
UniProt P08631, whole entry: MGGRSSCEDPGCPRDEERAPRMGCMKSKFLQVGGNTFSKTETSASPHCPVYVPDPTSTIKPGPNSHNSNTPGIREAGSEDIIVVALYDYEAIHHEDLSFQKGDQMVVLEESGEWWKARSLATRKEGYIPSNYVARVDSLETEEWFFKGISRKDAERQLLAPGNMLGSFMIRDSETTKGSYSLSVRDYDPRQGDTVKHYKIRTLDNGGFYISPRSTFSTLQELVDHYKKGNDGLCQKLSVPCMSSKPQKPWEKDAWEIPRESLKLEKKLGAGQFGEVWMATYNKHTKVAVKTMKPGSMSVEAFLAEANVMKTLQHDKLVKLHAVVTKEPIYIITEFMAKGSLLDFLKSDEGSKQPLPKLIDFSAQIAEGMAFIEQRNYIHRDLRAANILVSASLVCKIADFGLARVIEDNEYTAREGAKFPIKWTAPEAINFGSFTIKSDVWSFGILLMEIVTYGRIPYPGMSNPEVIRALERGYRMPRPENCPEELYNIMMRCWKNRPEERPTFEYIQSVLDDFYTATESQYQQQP
UniProt P07948, whole entry: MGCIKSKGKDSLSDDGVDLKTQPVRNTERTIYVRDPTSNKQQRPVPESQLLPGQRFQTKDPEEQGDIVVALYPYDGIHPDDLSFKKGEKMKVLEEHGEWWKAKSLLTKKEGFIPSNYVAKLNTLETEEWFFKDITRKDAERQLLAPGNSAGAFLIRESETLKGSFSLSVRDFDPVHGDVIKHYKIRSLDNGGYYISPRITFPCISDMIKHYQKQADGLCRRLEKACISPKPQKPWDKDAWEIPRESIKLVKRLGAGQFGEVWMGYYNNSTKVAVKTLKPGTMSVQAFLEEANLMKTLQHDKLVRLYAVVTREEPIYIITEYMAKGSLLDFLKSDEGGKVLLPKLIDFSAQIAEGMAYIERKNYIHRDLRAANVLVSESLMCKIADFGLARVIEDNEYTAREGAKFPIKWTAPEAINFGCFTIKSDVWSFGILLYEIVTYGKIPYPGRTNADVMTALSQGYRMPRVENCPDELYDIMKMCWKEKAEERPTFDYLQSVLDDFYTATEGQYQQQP
UniProt P29597, whole entry: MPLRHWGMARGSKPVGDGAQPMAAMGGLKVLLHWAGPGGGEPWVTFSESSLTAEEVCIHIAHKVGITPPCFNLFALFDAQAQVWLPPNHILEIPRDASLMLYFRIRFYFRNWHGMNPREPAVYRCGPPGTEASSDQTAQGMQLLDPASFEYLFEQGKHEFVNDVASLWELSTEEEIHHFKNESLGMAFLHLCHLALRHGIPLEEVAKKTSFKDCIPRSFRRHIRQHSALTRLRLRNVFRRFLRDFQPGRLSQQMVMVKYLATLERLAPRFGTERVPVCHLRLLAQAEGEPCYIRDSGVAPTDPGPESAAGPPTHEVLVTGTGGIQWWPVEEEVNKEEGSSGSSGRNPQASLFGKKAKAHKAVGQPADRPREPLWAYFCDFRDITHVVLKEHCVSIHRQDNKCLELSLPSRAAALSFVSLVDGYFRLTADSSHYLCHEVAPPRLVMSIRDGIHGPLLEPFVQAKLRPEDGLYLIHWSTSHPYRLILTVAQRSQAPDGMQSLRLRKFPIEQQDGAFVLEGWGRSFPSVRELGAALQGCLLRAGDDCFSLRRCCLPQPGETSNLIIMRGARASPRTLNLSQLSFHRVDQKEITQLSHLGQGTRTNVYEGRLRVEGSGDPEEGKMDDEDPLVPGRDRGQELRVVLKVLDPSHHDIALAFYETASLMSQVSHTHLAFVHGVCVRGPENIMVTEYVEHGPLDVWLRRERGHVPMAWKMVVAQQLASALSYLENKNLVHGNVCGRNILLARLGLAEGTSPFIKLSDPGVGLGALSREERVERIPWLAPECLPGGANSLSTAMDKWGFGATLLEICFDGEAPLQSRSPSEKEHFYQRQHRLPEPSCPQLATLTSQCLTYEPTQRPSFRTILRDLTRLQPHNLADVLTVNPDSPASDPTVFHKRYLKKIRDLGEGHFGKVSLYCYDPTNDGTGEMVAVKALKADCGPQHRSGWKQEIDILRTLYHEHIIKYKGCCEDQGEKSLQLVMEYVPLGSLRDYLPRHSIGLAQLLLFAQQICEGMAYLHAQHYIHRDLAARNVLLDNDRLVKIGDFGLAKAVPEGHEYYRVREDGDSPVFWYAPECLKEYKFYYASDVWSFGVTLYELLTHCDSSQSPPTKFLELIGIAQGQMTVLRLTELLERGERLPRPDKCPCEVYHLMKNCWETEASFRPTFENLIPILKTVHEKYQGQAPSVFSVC

`COC(=O)c1ccc2c(c1)C(=NO)C(=C1C(=O)Nc3cc(Br)ccc31)N2` was tested, and the IC50 (CDK2/cyclin A) was no more than 1.2 µM, the IC50 (FGR) was no more than 1.2 µM and the FLT3 kinase activity (FLT3; FIG. 16A) was “inhibition”. It also gave an IC50 (FLT3; FLT3) of no more than 1.2 µM, an IC50 (FYN) of no more than 1.2 µM and an IC50 (GSK3β) of no more than 1.2 µM. For the same molecule, the IC50 (HCK) was no more than 1.2 µM, the IC50 (LYN) was no more than 1.2 µM and the IC50 (TYK2) was no more than 1.2 µM. The “phosphorylation of Stat3” value [1] was “substantially inhibited”, the “phosphorylation of Jak2” value [2] was “substantially inhibited” and the “phosphorylation of Stat3” value [3] was “substantially inhibited”. For the same molecule, the “phosphorylation of Jak2” value [4] was “substantially inhibited”, the “levels of p-SFKs” value [5] was “Reduced” and the “phosphorylation of Stat5” value ([6]; 0.5 μM, 4 hours) was “substantially inhibited”. For the same molecule, the “levels of p-Stat5” value ([6]; at a low concentration) was “significantly reduced”.
